Experimental data as given in paper PMC12511262 (European Journal of Clinical Pharmacology, 2025).

Conditions: steady state
[1] = observed plasma concentrations, all samples

## CC(C)(C)c1cc(NC(=O)Nc2ccc(-c3cn4c(n3)sc3cc(OCCN5CCOCC5)ccc34)cc2)no1 [quizartinib]
[1]
  DV Drug concentration at time t, Mean: 129.08
  DV Drug concentration at time t, Median: 135.00
plasma, predose, mean (SD)
  Mean concentration at predose: 82 (41) ng/mL
